Measured values from patent US20180127464A1, “NOVEL EPHA4 INHIBITORS TARGETING ITS LIGAND BINDING DOMAIN” (Sanford-Burnham Medical Research Institute, priority 2015, published 2018).

By UniProt entry, the sequences of proteins in these tests, tags left out. Residues count along the entry.
UniProt P54764, 30-209 limits assumed: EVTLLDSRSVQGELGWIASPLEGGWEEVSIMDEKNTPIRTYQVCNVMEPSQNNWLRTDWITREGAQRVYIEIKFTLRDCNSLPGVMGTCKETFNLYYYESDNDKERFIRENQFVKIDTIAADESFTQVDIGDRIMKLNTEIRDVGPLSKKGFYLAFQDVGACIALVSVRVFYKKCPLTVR

Target: EphA4 LBD (Homo sapiens, UniProt P54764)
Experiment: Fluorescence polarization assay (FPA), displacement of FITC-labeled KYL peptide
Format: binding
Conditions: EphA4 LBD, displacement of FITC-KYL peptide, PBS pH 7.2; read-out: Ki by FPA
Protocol: Fluorescence Polarization Assay (FPA):
The EphA4 binding KYL peptide ([…], Murai et al. Mol. Cell. Neurosci. 2003, 24:1000-1011) was labeled at the N-terminus with fluorescein isothiocyanate (FITC) and purified by HPLC. For competitive binding assays, 1 μL of 200 μM EphA4 LBD was pre-incubated with the tested compounds at various concentrations in 98 μL PBS (pH=7.2) in 96-well black plates at room temperature for 10 min, and then 1 μL of 500 μM FITC labeled EphA4 peptide was added to produce a final volume of 100 μL. The KYL and DMSO were incubated in each assay as positive and negative controls, respectively. After 30 min of incubation at room temperature, the polarization values in millipolarization units were measured at excitation/emission wavelengths of 480/535 nm with a multilabel plate reader (PerkinElmer, Waltham, Mass., USA). Ki value was determined by fitting the experimental data to a Sigmoidal dose-response (variable slope) nonlinear regression model (GraphPad Prism version 5.01 for Windows, GraphPad Software, San Diego, Calif., USA).
(B) EphA4-LBD was dissolved in 50 mM potassium phosphate buffer (pH 6.5), containing 100 mM NaCl. ITC were measured.

COc1ccc2[nH]cc(CCNC(=O)[C@H](Cc3ccncc3)NC(=O)[C@H](Cc3ccc(Cl)cc3)NC(=O)[C@H](Cc3c[nH]c4ccc(O)cc34)NC(=O)CCCN)c2c1 [Compound 7, 4-amino-N-((S)-1-((S)-3-(4-chlorophenyl)-1-((S)-1-(2-(5-methoxy-1H-indol-3-yl)ethylamino)-1-oxo-3-(pyridin-4-yl)propan-2-ylamino)-1-oxopropan-2-ylamino)-3-(5-hydroxy-1H-indol-3-yl)-1-oxopropan-2-yl)butanamide]
Ki: < 1000 nM
